The source of these data is PubChem BioAssay AID652010 (The Scripps Research Institute Molecular Screening Center, 2013).

In general, inhibition refers to the drop in the measured response relative to a control, in per cent.

This is a selection; strong and weak results do not stand in their true shares. Calls of active or inactive are those of the source.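 How the source made its calls: active means inhibition above the mean over all tested compounds plus 3 SD (cut at about 3.6% in these data); inactive means the rest.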

This assay can be described thus: DAX1 (NR0B1) inhibitors on StAR promoter, primary screen, cell-based, luminescence, SF-1 (NR5A1), full-length DAX-1 (AID 652010).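 Further: 0% = DAX-1 cells with DMSO and 100% = cells lacking DAX-1 with DMSO; higher inhibition means more luminescence from relief of DAX-1 repression.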 The note with it: HEK293T StAR-luciferase reporter, SF-1/DAX-1 repression relief; at 6.8 µM; hits give high values. A general note: A reporter such as luciferase makes a cellular process visible.
On to `Cc1nc2ccc3ccccc3c2s1.O=[N+]([O-])c1cc([N+](=O)[O-])c(O)c([N+](=O)[O-])c1`, for which the inhibition is inactive: 0.71%.
As to `O=[N+]([O-])c1cc([N+](=O)[O-])c(-c2cnn(-c3ccccc3)c2)c([N+](=O)[O-])c1`, the inhibition was inactive: -1.56%.
On to `CN(Cc1cccnc1)C(=O)COc1ccc(Cl)c(Cl)c1.O=[N+]([O-])c1cc([N+](=O)[O-])c(O)c([N+](=O)[O-])c1`, for which the inhibition was inactive: 1.81%.
As for `O=[N+]([O-])c1cc([N+](=O)[O-])c(-n2nnc3ccccc32)c([N+](=O)[O-])c1`, the figure is inactive: -0.42%; as for `COc1ccc(-c2ccccn2)cc1.O=[N+]([O-])c1cc([N+](=O)[O-])c(O)c([N+](=O)[O-])c1`, inactive: 1.44%.
Under `CCCOc1ccc(NP(C)(=O)Oc2ccc(Cl)cc2)cc1` (configuration not stated) stands inactive: -0.71%; under `CP(=O)(Nc1ccc(SC(F)(F)F)cc1)Oc1ccccc1` (configuration not stated), inactive: -1.28%.
As for `COc1ccccc1OP(C)(=O)Nc1c(C)cccc1C` (configuration not stated), the figure is inactive: -0.35%.
With `CN1CCCCC1COC(=O)C1(O)c2ccccc2CCc2ccccc21` (configuration not stated), the inhibition was inactive: -0.52%.
As for `CCOC(=O)C(CC)C1=NC(C)(C)Cc2ccccc21.O=[N+]([O-])c1cc([N+](=O)[O-])c(O)c([N+](=O)[O-])c1` (configuration not stated), the inhibition is inactive: 0.21%.
Regarding `O=[N+]([O-])c1cc([N+](=O)[O-])c(Nc2nnnn2CCO)c([N+](=O)[O-])c1`, the inhibition was inactive: 0.26%.
As for `CC1=NCCc2c1[nH]c1ccccc21.O=[N+]([O-])c1cc([N+](=O)[O-])c(O)c([N+](=O)[O-])c1`, the figure is inactive: 0.74%; as for `O=C(O)c1cccc(Nc2c([N+](=O)[O-])cc([N+](=O)[O-])cc2[N+](=O)[O-])c1`, inactive: -0.12%.
For the compound `Cc1ccc(C)c(NP(C)(=O)Oc2ccccc2)c1` (configuration not stated), the inhibition was inactive: -0.08%.
As to `Cc1cc(C)cc(OP(C)(=O)Nc2ccccn2)c1` (configuration not stated), the inhibition was inactive: -0.24%.
As for `CP(=O)(Nc1cccc(Br)c1)Oc1ccccc1` (configuration not stated), the figure is inactive: -1.01%; as for `CCOC(=O)c1ccc(NP(C)(=O)Oc2cc(C)cc(C)c2)cc1` (configuration not stated), inactive: -0.24%; as for `Cc1cc(C)cc(OP(C)(=O)Nc2ccc(C)cc2C)c1` (configuration not stated), inactive: -0.54%.
Under `COc1ccccc1OP(C)(=O)Nc1cccc(Br)c1` (configuration not stated) stands inactive: -0.53%; under `COc1ccccc1-c1ccccn1.O=[N+]([O-])c1cc([N+](=O)[O-])c(O)c([N+](=O)[O-])c1`, inactive: 1.58%.
As for `CCN(CC)CCCOC(=O)C(O)(c1ccccc1)c1ccccc1`, the figure is inactive: 1.69%; as for `Cc1cc(C)cc(OP(C)(N)=O)c1` (configuration not stated), inactive: 0.93%.
For the compound `COc1ccc(OP(C)(=O)Nc2cccc(F)c2)cc1` (configuration not stated), the inhibition was inactive: -0.21%.
Take `COc1ccccc1OP(C)(=O)Nc1cc(Cl)ccc1C` (configuration not stated): the inhibition is inactive: -0.2%.
As for `Cc1ccc(NP(C)(=O)Oc2ccccc2)c(C)c1` (configuration not stated), the figure is inactive: -0.55%; as for `COc1ccccc1OP(C)(=O)Nc1ccc(C)cc1` (configuration not stated), inactive: 0.09%; as for `CCOC(=O)c1ccc(NP(C)(=O)Oc2ccccc2)cc1` (configuration not stated), inactive: -0.6%.
As for `O=[N+]([O-])c1ccc2c(c1)C=Nc1ccccc1O2`, the figure is inactive: -0.47%; as for `Cc1cccc(C)c1OP(C)(N)=O` (configuration not stated), inactive: 0.48%.
Under `CC(C)(C)c1ccc(OP(C)(=O)Nc2ccc(SC(F)(F)F)cc2)cc1` (configuration not stated) stands inactive: -0.4%.
For `O=[N+]([O-])c1cc([N+](=O)[O-])c(Nc2cccnc2)c([N+](=O)[O-])c1`, the inhibition is inactive: -0.67%.
Under `CP(=O)(Nc1ccccc1Br)Oc1ccccc1` (configuration not stated) stands inactive: -0.68%; under `COc1ccccc1OP(C)(=O)Nc1ccccc1` (configuration not stated), inactive: 0.91%.
As for `CP(=S)(Nn1cnnc1)Oc1ccccc1` (configuration not stated), the figure is inactive: -0.29%; as for `CP(=O)(Nc1ccccn1)Oc1ccc(Cl)cc1` (configuration not stated), inactive: -0.33%.
Consider `CCOC(=O)c1ccc(NP(C)(=O)Oc2ccc(OC)cc2)cc1` (configuration not stated), for which the inhibition is inactive: -0.21%.
Under `O=[N+]([O-])c1cc([N+](=O)[O-])c(O)c([N+](=O)[O-])c1.c1ccc(Oc2ccncc2)cc1` stands inactive: -0.73%; under `CCOP(C)(=S)SCC(=O)NC(C)C(=O)O` (configuration not stated), inactive: 1.35%; under `Cc1cc(C)cc(OP(C)(=O)Nc2ccc(SC(F)(F)F)cc2)c1` (configuration not stated), inactive: -0.47%.
Turning to `CP(=O)(NC(=O)Nc1ccccc1)Oc1ccccc1` (configuration not stated), the inhibition is inactive: -0.32%.
As for `CCc1ccc(OP(C)(=O)N2CCN(c3ccc([N+](=O)[O-])cc3)CC2)cc1` (configuration not stated), the figure is inactive: -0.79%.
Under `CP(=O)(Oc1ccccc1)OC(c1ccccc1)C(F)(F)F` (configuration not stated) stands inactive: -0.58%; under `Cc1cccc(C)c1OP(C)(=O)Nc1ccc(SC(F)(F)F)cc1` (configuration not stated), inactive: 0.3%.
Under `CP(=O)(Nc1ccc(SC(F)(F)F)cc1)Oc1ccc(Cl)cc1` (configuration not stated) stands inactive: -0.04%.
Take `CN(C)C(=O)c1c([N+](=O)[O-])cc([N+](=O)[O-])cc1[N+](=O)[O-]`: the inhibition was inactive: -1.99%.
Under `COc1ccccc1OP(C)(=O)Nc1ccccc1Br` (configuration not stated) stands inactive: -1.48%.
Under `CC(C)(C)c1ccc(OP(C)(=O)O)cc1` stands inactive: -0.28%.
Under `CP(=O)(Nc1ccc(Cl)cc1)Oc1ccc(F)cc1` (configuration not stated) stands inactive: -1.26%; under `O=C(OCCCN1CCCC1)C(O)(c1ccccc1)C1CCCCC1` (configuration not stated), inactive: 0.13%; under `COc1ccccc1OP(C)(=O)Nc1c(C)n(C)n(-c2ccccc2)c1=O` (configuration not stated), inactive: 0.11%.
For `CCc1ccc(OP(C)(=O)Nc2cccnc2)cc1` (configuration not stated), the inhibition was inactive: 0.63%.
As for `CP(=O)(Oc1ccccc1)N1CCOC1=O` (configuration not stated), the figure is inactive: -0.68%.
As for `COc1ccc(OP(C)(=O)Nc2ccc(Br)cc2)cc1` (configuration not stated), the figure is inactive: 0.09%; as for `CCN(CC)CC(O)COC(=O)C(O)(c1ccccc1)C1CCCCC1` (configuration not stated), inactive: 0.23%; as for `CCOC(=O)c1ccc(NP(C)(=O)Oc2ccc(Cl)cc2)cc1` (configuration not stated), inactive: -0.97%.
Take `CP(=O)(OC12CC3CC(CC(C3)C1)C2)OC12CC3CC(CC(C3)C1)C2`: the inhibition is inactive: -0.76%.
As for `Nc1ccc2c(ccc3cccnc32)n1.O=[N+]([O-])c1cc([N+](=O)[O-])c(O)c([N+](=O)[O-])c1`, the figure is inactive: 0.44%.
